AlphaSeq binding of Ab-14 heavy chain variants to a spike HR2 peptide

Data: MIT Lincoln Laboratory AlphaSeq set, Li et al. 2023, doi:10.1038/s41467-023-39022-2, as distributed in FLAb.

Target: peptide PDVDLGDISGINAS, taken from heptad repeat 2 (HR2) of SARS-CoV-2 spike.

Each scFv is VH, a 15-residue (Gly4Ser)3 linker, VL, as in the parent Ab-14, and differs from it in the CDRs of the heavy chain only.
VH: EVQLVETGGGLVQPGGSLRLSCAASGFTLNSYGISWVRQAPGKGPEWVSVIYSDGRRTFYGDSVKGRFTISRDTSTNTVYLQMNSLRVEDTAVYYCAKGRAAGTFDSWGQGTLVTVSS
VL: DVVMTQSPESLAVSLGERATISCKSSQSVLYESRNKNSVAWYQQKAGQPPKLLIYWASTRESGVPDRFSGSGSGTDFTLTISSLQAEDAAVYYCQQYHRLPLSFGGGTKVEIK

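Phage display of a naive human antibody library on the peptide gave the parent. These sequences belong to a second round, designed from the earlier measurements on random variants of the parent. Their group label is 14H_En_Gen (En: ensemble of fine-tuned language models; Gen: genetic algorithm). Affinity was read by AlphaSeq, a pooled yeast mating assay with surface-displayed partners. Binding brings cells together so that they mate, and sequencing counts the barcode pairs among the diploids. Each replicate has its own calibration line, from reference interactions of the BCL2 family. There are six technical replicates.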

Variants are written as CDR1, CDR2 and CDR3 of the heavy chain (limits as in the source). Parent: GFTLNSYGIS, VIYSDGRRTFYGDSVK, GRAAGTFDS.
Scale: log10 of Kd in nM, estimated from mating counts; low values are strong binders.
"ND" means that the variant was in the library but no mating with the target was seen in that replicate; the authors take this as a sign of poor binding, and no number exists.
A sequence measured in both rounds can read differently, since the two assays cover different ranges.
Of ten entries with the parent sequence, four were seen in most replicates (averages 0.34 to 2.37), three in one and three in none, so single entries are noisy.
As a blank, each scFv also met three strains without target: over all heavy chain designs, 1% of these pairings were detected, typically at 2.08 and seldom below 0.84. For each scFv, signals with the empty controls are counted beside the result, with their mean in brackets.
The authors averaged sequences with at least three values out of six and counted those with two or fewer as poor binders.

| # | CDR-H1 | CDR-H2 | CDR-H3 | log10 Kd (nM) by replicate | control signals |
|---|---|---|---|---|---|
| 1 | GFDLNEYGIS | VIYADGMRTFYSDSVK | GENAGTFDV | -0.43 / -0.26 / -0.49 / -0.58 / -0.49 / -0.10 | 1/18 (3.94) |
| 2 | GFNLDEYGIS | VIYADGKRTAYADSVK | GNVAGTFDL | -0.29 / -0.19 / 0.00 / 0.41 / -0.73 / 0.69 | 0/18 |
| 3 | GFDLNEYGIS | VIYADGMRTVYADSVK | GQVAGTFDI | -0.38 / -0.68 / -0.74 / -0.77 / -0.69 / -0.62 | 0/18 |
| 4 | GFDLNEYGIS | VIYADGMRTFYADNVK | GNVAGTFDL | -0.17 / 0.02 / -0.23 / -0.22 / -0.40 / -0.02 | 0/18 |
| 5 | GFDLNEYGIS | VIYADGIRTAYADSVK | GNVAGTFDI | -0.25 / -0.70 / -0.77 / -1.01 / -0.71 / -0.45 | 0/18 |
| 6 | GFDLDEYGIS | VIYADGKRTYYADSVK | GNVAGTFDV | -0.32 / -0.66 / -0.57 / -0.76 / -0.97 / -0.85 | 0/18 |
| 7 | GFDLNEYGIS | VIYADGQRTAYADDVK | GNEAGTFDV | 0.57 / -0.19 / -0.12 / -0.38 / -0.01 / 0.18 | 0/18 |
| 8 | GFDLNEYGIS | VIYADGMRTAYVDNVK | GNVAGTFDV | 0.13 / 0.25 / -0.26 / 0.08 / -0.01 / 0.17 | 0/18 |
| 9 | GFDLNEYGIS | VIYADGQRTAYANSVK | GNVAGTFDV | -0.48 / -0.60 / -0.61 / -0.71 / -0.85 / -0.39 | 1/18 (3.56) |
| 10 | GFDLNEYGIS | VIYADGMRTAYSDSVK | GTNAGTFDV | 0.44 / 0.12 / -0.12 / 0.05 / -0.26 / 0.24 | 0/18 |
| 11 | GFDLNEYGIS | VIYADGKRTAYSDSVK | GGNAGTFDL | -0.23 / -0.22 / -0.54 / -0.29 / -0.40 / -0.23 | 0/18 |
| 12 | GFDLNEYGIS | VIYADGVRTAYADSVK | GETAGTFDQ | 0.11 / 0.45 / -0.26 / -0.43 / 0.11 / 0.10 | 1/18 (2.17) |
| 13 | GFDLNEYGIS | VIYADGMRTAYADDVK | GNVAGTFDT | 0.59 / 0.86 / 0.24 / 0.65 / 0.28 / 0.91 | 0/18 |
| 14 | GFDLDEYGIS | VIYADGVRTAYIDSVK | GENAGTFDV | 0.97 / 1.85 / 0.94 / 1.55 / 0.63 / 1.00 | 0/18 |
| 15 | GFDLNEYGIS | VIYADGRRTAYADSVK | GNVAGTFDL | -0.59 / -0.74 / -0.96 / -0.88 / -0.74 / -0.50 | 1/18 (2.26) |
| 16 | GFDLNEYGIS | VIYADGMRTVYADSVK | GSNAGTFDV | -0.30 / 0.49 / 0.68 / -0.44 / -0.33 / 0.17 | 0/18 |
| 17 | GFDLNEYGIS | VIYADGSRTAYADDVK | GEVAGTFDL | 0.14 / -0.06 / -0.01 / 0.12 / 0.06 / 0.49 | 0/18 |
| 18 | GFDLDEYGIS | VIYADGVRTAYADNVK | GETAGTFDV | 0.11 / -0.48 / -0.31 / -0.48 / -0.56 / -0.35 | 1/18 (2.10) |
| 19 | GFDLNEYGIS | VIYADGMRTAYVDDVK | GNNAGTFDI | -0.49 / -0.57 / -0.66 / -0.90 / -0.76 / -0.65 | 0/18 |
| 20 | GFDLNEYGIS | VIYADGMRTVYADSVK | GENAGTFDT | 1.10 / 0.45 / 0.40 / 0.57 / 1.01 / 0.06 | 0/18 |
| 21 | GFDLDEYGIS | VIYADGRRTAYADSVK | GNQAGTFDT | 0.00 / -0.06 / -0.51 / -0.61 / -0.41 / -0.13 | 0/18 |
| 22 | GFDLNEYGIS | VIYADGRRTAYSDDVK | GENAGTFDV | -0.54 / -0.29 / -0.48 / -0.24 / -0.36 / 0.16 | 0/18 |
| 23 | GFDLNEYGIS | VIYADGMRTSYADDVK | GNTAGTFDV | 0.09 / -0.04 / -0.33 / -0.59 / -0.15 / -0.09 | 0/18 |
| 24 | GFDLNEYGIS | VIYADGKRTAYIDSVK | GTNAGTFDV | -0.60 / -0.95 / -1.23 / -1.39 / -1.02 / -0.78 | 1/18 (2.16) |
| 25 | GFDLNEYGIS | VIYADGKRTAYTDSVK | GNVAGTFDQ | -0.17 / -0.23 / -0.38 / -0.69 / -0.87 / -0.42 | 0/18 |
| 26 | GFDLNEYGIS | VIYADGQRTAYADSVK | GANAGTFDI | -0.43 / -0.21 / -0.54 / -0.51 / -0.49 / 0.03 | 0/18 |
| 27 | GFDLDEYGIS | VIYADGSRTFYADSVK | GNVAGTFDV | -0.17 / -0.05 / 0.71 / -0.43 / 1.45 / 0.42 | 0/18 |
| 28 | GFDLNEYGIS | VIYADGKRTAYADDVK | GNVAGTFDM | -0.19 / -0.26 / 0.22 / -0.59 / 0.29 / -0.55 | 0/18 |
| 29 | GFDLNEYGIS | VIYADGRRTAYADDVK | GEVAGTFDT | -0.67 / -0.29 / -0.83 / -0.69 / -0.92 / -0.32 | 0/18 |
| 30 | GFDLNEYGIS | VIYADGMRTAYADDVK | GEVAGTFDV | -0.31 / -0.46 / -0.28 / -0.68 / -0.40 / -0.24 | 1/18 (1.75) |
| 31 | GFDLDEYGIS | VIYADGRRTYYADSVK | GEVAGTFDV | 0.08 / -0.03 / -0.37 / -0.10 / 0.07 / -0.53 | 0/18 |
| 32 | GFDLNEYGIS | VIYADGMRTVYADSVK | GNNAGTFDM | ND / ND / ND / ND / ND / ND | 0/18 |
| 33 | GFDLNEYGIS | VIYADGTRTAYADSVK | GENAGTFDV | 0.59 / 0.09 / -0.31 / -0.66 / 0.36 / 0.04 | 0/18 |
| 34 | GFDLDEYGIS | VIYADGQRTAYADDVK | GNEAGTFDV | 0.33 / 0.34 / -0.20 / 0.24 / 0.11 / 0.35 | 0/18 |
| 35 | GFDLDEYGIS | VIYADGVRTAYADSVK | GNNAGTFDV | -0.26 / -0.36 / -0.37 / -0.42 / -0.45 / -0.58 | 0/18 |
| 36 | GFDLNEYGIS | VIYADGMRTAYQDSVK | GNTAGTFDV | -0.60 / -0.67 / -0.54 / -0.93 / -0.58 / -0.69 | 0/18 |
| 37 | GFDLDEYGIS | VIYADGVRTAYADSVK | GNNAGTFDQ | 0.16 / 0.07 / -0.22 / -0.21 / -0.14 / -0.23 | 0/18 |
| 38 | GFDLNEYGIS | VIYADGQRTAYSDNVK | GEVAGTFDV | -0.81 / -0.74 / -0.75 / -0.72 / -0.70 / -0.63 | 0/18 |
| 39 | GFDLEDYGIS | VIYADGKRTAYADSVK | GNTAGTFDV | -0.57 / -0.02 / -0.80 / -0.87 / -0.80 / -0.41 | 1/18 (1.07) |
| 40 | GFDLDEYGIS | VIYADGKRTAYADSVK | GQVAGTFDV | -0.38 / -0.67 / -0.69 / -0.63 / -0.72 / -0.75 | 0/18 |
| 41 | GFDLDEYGIS | VIYADGKRTAYIDSVK | GNTAGTFDV | -0.17 / -0.23 / -0.49 / -0.48 / -0.32 / -0.15 | 1/18 (3.83) |
| 42 | GFDLDEYGIS | VIYADGMRTAYSDSVK | GNNAGTFDQ | -0.01 / 0.01 / 0.11 / -0.05 / -0.07 / 0.13 | 2/18 (2.23) |
| 43 | GFNLDEYGIS | VIYADGMRTAYADSVK | GETAGTFDV | -0.13 / -0.31 / -0.37 / -0.46 / -0.05 / -0.23 | 0/18 |
| 44 | GFDLNEYGIS | VIYADGLRTAYADSVK | GNEAGTFDV | 0.51 / 0.75 / 0.25 / 0.20 / 0.22 / -0.02 | 0/18 |
| 45 | GFDLDEYGIS | VIYADGMRTAYIDSVK | GNVAGTFDQ | -0.43 / -0.20 / -0.55 / -0.55 / -0.43 / -0.31 | 0/18 |
| 46 | GFDLNEYGIS | VIYADGKRTAYTDSVK | GTNAGTFDV | -0.53 / -0.72 / -1.18 / -0.97 / -1.47 / -1.01 | 1/18 (1.47) |
| 47 | GFDLNEYGIS | VIYADGMRTVYTDSVK | GQNAGTFDV | -0.30 / -0.62 / -0.40 / -0.84 / -0.90 / -0.53 | 2/18 (1.94) |
| 48 | GFDLNEYGIS | VIYADGVRTAYADSVK | GNVAGTFDS | -1.02 / -1.14 / -1.36 / -1.12 / -1.32 / -0.96 | 0/18 |
| 49 | GFDLDEYGIS | VIYADGKRTAYTDSVK | GNVAGTFDI | ND / ND / ND / ND / ND / 0.99 | 0/18 |

The opening 4 entries, copied out:

{"CDR-H1": "GFDLNEYGIS", "CDR-H2": "VIYADGMRTFYSDSVK", "CDR-H3": "GENAGTFDV", "log10 Kd (nM) by replicate": "-0.43 / -0.26 / -0.49 / -0.58 / -0.49 / -0.10", "control signals": "1/18 (3.94)"}
{"CDR-H1": "GFNLDEYGIS", "CDR-H2": "VIYADGKRTAYADSVK", "CDR-H3": "GNVAGTFDL", "log10 Kd (nM) by replicate": "-0.29 / -0.19 / 0.00 / 0.41 / -0.73 / 0.69", "control signals": "0/18"}
{"CDR-H1": "GFDLNEYGIS", "CDR-H2": "VIYADGMRTVYADSVK", "CDR-H3": "GQVAGTFDI", "log10 Kd (nM) by replicate": "-0.38 / -0.68 / -0.74 / -0.77 / -0.69 / -0.62", "control signals": "0/18"}
{"CDR-H1": "GFDLNEYGIS", "CDR-H2": "VIYADGMRTFYADNVK", "CDR-H3": "GNVAGTFDL", "log10 Kd (nM) by replicate": "-0.17 / 0.02 / -0.23 / -0.22 / -0.40 / -0.02", "control signals": "0/18"}